Data: patent US20140128599A1, “BENZOXAZOLE KINASE INHIBITORS AND METHODS OF USE” (Intellikine LLC La Jolla, priority 2008, published 2014)

Experiments:
Assay type in all cases: biochemical
PI3K γ = target: T1, PI3K γ (Homo sapiens, UniProt P48736); experiment: PI3K kinase inhibition assay (p110γ)
T1 construct: purchased Sigma
Procedure: Class I PI3-Ks can be either purchased (p110α/p85α, p110β/p85α, p110δ/p85α from Upstate, and p110γ from Sigma) or expressed as previously described (Knight et al., 2004). IC50 values are measured using either a standard TLC assay for lipid kinase activity (described below) or a high-throughput membrane capture assay. Kinase reactions are performed by preparing a reaction mixture containing kinase, inhibitor (2% DMSO final concentration), buffer (25 mM HEPES, pH 7.4, 10 mM MgCl2), and freshly sonicated phosphatidylinositol (100 μg/ml). Reactions are initiated by the addition of ATP containing 10 μCi of γ-32P-ATP to a final concentration 10 or 100 μM and allowed to proceed for 5 minutes at room temperature. For TLC analysis, reactions are then terminated by the addition of 105 μl 1N HCl followed by 160 μl CHCl3:MeOH (1:1). The biphasic mixture is vortexed, briefly centrifuged, and the organic phase is transferred to a new tube using a gel loading pipette tip precoated with CHCl3. This extract is spotted on TLC plates and developed for 3-4 hours in a 65:35 solution of n-propanol:1M acetic acid. The TLC plates are then dried, exposed to a phosphorimager screen (Storm, Amersham), and quantitated. For each compound, kinase activity is measured at 10-12 inhibitor concentrations representing two-fold dilutions from the highest concentration tested (typically, 200 μM).

PI3K α = target: T2, PI3K α (Homo sapiens, UniProt P42336); experiment: PI3K kinase inhibition assay (p110α/p85α)
T2 construct: purchased Upstate

mTOR = target: T3, mTOR (Homo sapiens, UniProt P42345); experiment: mTOR kinase inhibition assay
T3 construct: purchased Invitrogen

PI3K δ = target: T4, PI3K δ (Homo sapiens, UniProt O00329); experiment: PI3K kinase inhibition assay (p110δ/p85α)
T4 construct: purchased Upstate

Row | Structure (SMILES) | IC50 (PI3K γ) [µM] | IC50 (PI3K α) [µM] | IC50 (mTOR) [µM] | IC50 (PI3K δ) [µM]
1 | CC(C)n1nc(-c2ccc3c(NC4CC4)noc3c2)c2c(N)ncnc21 [compound 14] | < 1 |  |  | 
2 | Nc1nc2cc(-c3nn(C4CCC(N5CCOCC5)CC4)c4ncnc(N)c34)ccc2o1 (stereo not drawn) [compound 6] | < 10 | < 10 |  | 
3 | CC(=O)Nc1nc2ccc(-c3nn(C(C)C)c4ncnc(N)c34)cc2o1 [compound 3] | < 10 |  | < 10 | < 10
4 | CC(C)n1nc(-c2ccc3onc(NC4CC4)c3c2)c2c(N)ncnc21 [compound 16] | < 10 |  |  | 
5 | Nc1nc2cc(-c3cn(C4CCOCC4)c4ncnc(N)c34)ccc2o1 [compound 9] | < 1 |  |  | < 1
